In this assay the target is Purine nucleoside phosphorylase (Homo sapiens) (UniProt P00491). The experiment in a line: Binding affinity against Purine Nucleoside Phosphorylase.

pKd: −log10 of the molar value.

A word on the pKd: it is the Kd on a negative log10 scale, so that one unit is a factor of ten. Higher therefore signals a low Kd. `O=P(O)(O)OC[C@H]1O[C@@H](n2cnc3cncnc32)[C@H](O)[C@@H]1O` had a pKd of 8.96.

These data come from BindingDB's records for doi:10.1021/jm0105833 (Harvard University, 2002).
